Test results from US20150258192A1, “COMPOSITIONS AND METHODS FOR PREVENTING OR TREATING CHRONIC LUNG ALLOGRAFT DYSFUNCTION (CLAD) AND IDIOPATHIC PULMONARY FIBROSIS (IPF)” (priority 2014, published 2015).

Legend:
Assay in all cases: Kinase Profiling Assay
Type in all cases: biochemical
Settings in all cases: peptide 100 μM
BTK(h) = BTK(h) (Homo sapiens, UniProt Q06187)
Experimental: (§1) Every kinase activity measurement was conducted in duplicate.
(§2) Specifically, in these assays, a positively charged substrate is phosphorylated with a radiolabeled phosphate group from an ATP if the kinase is not inhibited by an inhibitor peptide. The positively charged substrate then is attracted to a negatively charged filter membrane, quantified with a scintillation counter, and compared to a 100% activity control.
(§3) In addition to determining the IC50 of the compound, the specificity of MK2 inhibitory peptides was assessed by examining activities of all 266 human kinases available for testing in the Millipore kinase profiling service (Table 1).

CHK1(h) = target: T1, CHK1(h) (Homo sapiens, UniProt O14757)
T1 sequence (O14757 1-476): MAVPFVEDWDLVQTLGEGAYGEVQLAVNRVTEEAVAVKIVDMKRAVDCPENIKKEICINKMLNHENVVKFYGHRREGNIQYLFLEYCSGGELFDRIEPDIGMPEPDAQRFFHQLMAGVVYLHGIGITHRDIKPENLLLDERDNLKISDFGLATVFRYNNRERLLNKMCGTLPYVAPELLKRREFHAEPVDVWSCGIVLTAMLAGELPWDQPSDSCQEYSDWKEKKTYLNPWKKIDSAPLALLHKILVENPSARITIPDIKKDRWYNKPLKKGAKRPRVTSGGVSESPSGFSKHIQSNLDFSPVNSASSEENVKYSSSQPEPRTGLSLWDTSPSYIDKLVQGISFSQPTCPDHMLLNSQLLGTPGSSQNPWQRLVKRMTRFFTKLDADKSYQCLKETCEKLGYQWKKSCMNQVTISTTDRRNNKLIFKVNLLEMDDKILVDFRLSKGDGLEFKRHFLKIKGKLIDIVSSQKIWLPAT
Experimental: as §1, §2, §3

ACK1(h) = ACK1(h) (Homo sapiens, UniProt Q07912)
Experimental: as §1, §2, §3

PKA(h) = PKA(h) (Homo sapiens, UniProt P17612)
Experimental: as §1, §2, §3

Abl(M351T)(h) = Abl(M351T)(h) (Homo sapiens, UniProt P00519, M351T)
Experimental: as §1, §2, §3

VRK2(h) = VRK2(h) (Homo sapiens, UniProt Q86Y07)
Experimental: as §1, §2, §3

Abl(Y253F)(h) = Abl(Y253F)(h) (Homo sapiens, UniProt P00519, Y253F)
Experimental: as §1, §2, §3

DDR2(h) = target: T2, DDR2(h) (Homo sapiens, UniProt Q16832)
T2 sequence (Q16832 22-855): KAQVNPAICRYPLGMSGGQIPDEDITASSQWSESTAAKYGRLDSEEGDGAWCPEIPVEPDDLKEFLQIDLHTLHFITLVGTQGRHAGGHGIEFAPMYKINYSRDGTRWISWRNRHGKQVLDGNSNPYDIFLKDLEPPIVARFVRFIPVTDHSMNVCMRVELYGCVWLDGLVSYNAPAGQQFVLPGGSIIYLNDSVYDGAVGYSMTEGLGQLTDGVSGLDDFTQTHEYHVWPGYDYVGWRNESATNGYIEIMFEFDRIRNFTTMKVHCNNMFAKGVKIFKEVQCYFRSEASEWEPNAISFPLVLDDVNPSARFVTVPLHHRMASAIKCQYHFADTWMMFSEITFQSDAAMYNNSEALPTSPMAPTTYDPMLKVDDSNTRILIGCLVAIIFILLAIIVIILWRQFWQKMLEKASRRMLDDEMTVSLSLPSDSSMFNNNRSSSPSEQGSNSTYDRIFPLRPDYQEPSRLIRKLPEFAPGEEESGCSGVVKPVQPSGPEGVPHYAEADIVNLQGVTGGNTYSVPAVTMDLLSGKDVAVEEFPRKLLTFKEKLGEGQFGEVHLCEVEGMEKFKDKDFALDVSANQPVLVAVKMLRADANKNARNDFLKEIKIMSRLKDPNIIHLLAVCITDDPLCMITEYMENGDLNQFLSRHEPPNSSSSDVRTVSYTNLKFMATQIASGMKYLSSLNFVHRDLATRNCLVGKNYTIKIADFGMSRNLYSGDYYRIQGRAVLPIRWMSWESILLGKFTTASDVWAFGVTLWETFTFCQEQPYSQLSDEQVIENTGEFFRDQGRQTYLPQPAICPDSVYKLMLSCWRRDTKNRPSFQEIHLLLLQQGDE
Experimental: as §1, §2, §3

PKCη(h) = PKCη(h) (Homo sapiens, UniProt P24723)
Experimental: as §1, §2, §3

MAPK2(h) = target: T3, MAPK2(h) (Homo sapiens, UniProt P28482)
T3 construct: purchased Millipore
Experimental: as §1, §2, §3

IGF-1R(h) = target: T4, IGF-1R(h) (Homo sapiens, UniProt P08069)
T4 construct: purchased Millipore
Experimental: as §1, §2, §3

CK1γ1(h) = CK1γ1(h) (Homo sapiens, UniProt Q9HCP0)
Experimental: as §1, §2, §3

Abl(H396P)(h) = Abl(H396P)(h) (Homo sapiens, UniProt P00519, H396P)
Experimental: as §1, §2, §3

CDK2/cyclinA(h) = CDK2/cyclinA(h) (Homo sapiens, UniProt P24941)
Experimental: as §1, §2, §3

IKKβ(h) = target: T5, IKKβ(h) (Homo sapiens, UniProt O14920)
T5 construct: purchased Millipore
Experimental: as §1, §2, §3

Abl(h) = Abl(h) (Homo sapiens, UniProt P00519)
Experimental: as §1, §2, §3

MEK1(h) = target: T6, MEK1(h) (Homo sapiens, UniProt Q02750)
T6 construct: purchased Millipore
Experimental: as §1, §2, §3

Lck(h) = target: T7, Lck(h) (Homo sapiens, UniProt P06239)
T7 construct: purchased Millipore
Experimental: as §1, §2, §3

Abl(Q252H)(h) = Abl(Q252H)(h) (Homo sapiens, UniProt P00519, Q252H)
Experimental: as §1, §2, §3

CDK1/cyclinB(h) = CDK1/cyclinB(h) (Homo sapiens, UniProt P06493)
Experimental: as §1, §2, §3

MRCKα(h) = target: T8, MRCKα(h) (Homo sapiens, UniProt Q5VT25)
T8 construct: purchased Millipore
Experimental: as §1, §2, §3

Molecule | % activity (BTK(h)) [%] | % activity (CHK1(h)) [%] | % activity (ACK1(h)) [%] | % activity (PKA(h)) [%] | % activity (Abl(M351T)(h)) [%] | % activity (VRK2(h)) [%] | % activity (Abl(Y253F)(h)) [%] | % activity (DDR2(h)) [%] | % activity (PKCη(h)) [%] | % activity (MAPK2(h)) [%] | % activity (IGF-1R(h)) [%] | % activity (CK1γ1(h)) [%] | % activity (Abl(H396P)(h)) [%] | % activity (CDK2/cyclinA(h)) [%] | % activity (IKKβ(h)) [%] | % activity (Abl(h)) [%] | % activity (MEK1(h)) [%] | % activity (Lck(h)) [%] | % activity (Abl(Q252H)(h)) [%] | % activity (CDK1/cyclinB(h)) [%] | other results
CC(C)C[C@H](NC(=O)[C@H](C)NC(=O)[C@H](CCCCN)NC(=O)[C@H](C)NC(=O)[C@H](CCCNC(=N)N)NC(=O)[C@H](C)NC(=O)[C@H](CCC(N)=O)NC(=O)[C@H](CCCNC(=N)N)NC(=O)[C@H](C)NC(=O)[C@H](C)NC(=O)[C@H](C)NC(=O)[C@H](CCCNC(=N)N)NC(=O)[C@H](C)NC(=O)[C@@H](N)Cc1ccc(O)cc1)C(=O)N[C@@H](C)C(=O)N[C@@H](CCCNC(=N)N)C(=O)N[C@@H](CCC(N)=O)C(=O)N[C@@H](CC(C)C)C(=O)NCC(=O)N[C@H](C(=O)N[C@@H](C)C(=O)N[C@@H](C)C(=O)O)C(C)C [MMI-0100] | 112 | 97 | 106 | 138 | 128 | 112 | 104 | 105 | 105 | 98 | 102 | 110 | 130 | 97 | 105 | 136 | 86 | 346 | 105 | 96 | 
FAKLAARLYRKALARQLGVAA [MMI-0300] | 102 |  | 104 | 119 |  |  |  |  | 103 |  | 119 | 111 |  |  |  |  |  |  |  |  | % activity (MRCKα(h)): 104%
YARAAARQARAKALNRQLGVA (Mammal) [MMI-0200] |  | 115 |  |  | 119 | 109 | 102 | 104 |  | 105 |  |  | 121 | 114 | 109 | 107 | 116 | 113 | 107 | 115 | % activity (MRCKα(h)): 103%
